Drawing on ChEMBL document CHEMBL5352398 (Eur J Med Chem, 2022), this text covers inhibition for one compound.

In this assay the target is T1, Solute carrier family 2, facilitated glucose transporter member 9 (Mus musculus) (UniProt Q3T9X0).
T1 sequence (whole entry): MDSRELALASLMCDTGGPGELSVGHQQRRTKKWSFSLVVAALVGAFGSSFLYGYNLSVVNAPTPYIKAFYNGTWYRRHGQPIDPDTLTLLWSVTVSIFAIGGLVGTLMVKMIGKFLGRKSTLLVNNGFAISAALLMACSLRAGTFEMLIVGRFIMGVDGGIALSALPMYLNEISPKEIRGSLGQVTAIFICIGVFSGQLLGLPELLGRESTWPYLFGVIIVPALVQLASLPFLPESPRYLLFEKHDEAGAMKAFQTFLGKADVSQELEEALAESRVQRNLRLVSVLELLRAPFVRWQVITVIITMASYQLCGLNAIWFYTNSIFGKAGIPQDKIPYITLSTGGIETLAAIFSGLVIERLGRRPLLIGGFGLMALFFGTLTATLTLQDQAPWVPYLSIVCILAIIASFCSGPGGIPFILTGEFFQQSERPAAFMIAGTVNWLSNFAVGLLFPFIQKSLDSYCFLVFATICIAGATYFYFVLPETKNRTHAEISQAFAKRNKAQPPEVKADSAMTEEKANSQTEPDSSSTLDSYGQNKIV
Description: Inhibition of mouse GLUT9 transfected in human HEK293 cells assessed as inhibition of uric acid induced current at 10 uM by cell patch-clamp assay. Format: cell-based.

Consider `O=C(c1cc(Cl)c(O)c(Cl)c1)n1ccc2cccnc21`, for which the inhibition turned out to be 5.91%.
